Amino acid sequences for entries named in this document (tags omitted).
UniProt Q13422, whole entry: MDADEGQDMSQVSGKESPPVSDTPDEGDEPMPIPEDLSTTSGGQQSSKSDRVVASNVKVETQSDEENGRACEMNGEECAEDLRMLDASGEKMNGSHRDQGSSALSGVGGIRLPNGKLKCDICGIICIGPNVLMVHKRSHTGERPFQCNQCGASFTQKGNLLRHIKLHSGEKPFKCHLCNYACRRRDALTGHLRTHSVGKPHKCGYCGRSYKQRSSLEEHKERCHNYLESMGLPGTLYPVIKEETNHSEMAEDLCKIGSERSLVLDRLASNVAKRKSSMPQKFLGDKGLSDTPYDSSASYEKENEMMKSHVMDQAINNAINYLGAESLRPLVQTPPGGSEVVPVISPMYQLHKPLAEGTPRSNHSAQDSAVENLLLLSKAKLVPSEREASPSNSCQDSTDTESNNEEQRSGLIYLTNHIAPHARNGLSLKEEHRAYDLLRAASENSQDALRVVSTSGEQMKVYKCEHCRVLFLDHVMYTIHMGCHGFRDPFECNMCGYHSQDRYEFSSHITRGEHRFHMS
UniProt Q96SW2, whole entry: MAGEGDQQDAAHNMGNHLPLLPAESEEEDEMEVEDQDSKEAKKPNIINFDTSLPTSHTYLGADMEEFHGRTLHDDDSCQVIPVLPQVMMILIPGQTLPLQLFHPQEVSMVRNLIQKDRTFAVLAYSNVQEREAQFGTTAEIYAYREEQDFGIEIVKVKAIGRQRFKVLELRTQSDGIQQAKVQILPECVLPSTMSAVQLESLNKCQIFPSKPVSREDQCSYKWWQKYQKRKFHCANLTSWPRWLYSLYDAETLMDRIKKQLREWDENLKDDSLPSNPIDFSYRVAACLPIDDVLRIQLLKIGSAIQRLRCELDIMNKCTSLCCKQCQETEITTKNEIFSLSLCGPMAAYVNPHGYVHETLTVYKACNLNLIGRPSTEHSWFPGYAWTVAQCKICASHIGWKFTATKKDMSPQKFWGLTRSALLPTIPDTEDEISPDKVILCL
UniProt P48729, whole entry: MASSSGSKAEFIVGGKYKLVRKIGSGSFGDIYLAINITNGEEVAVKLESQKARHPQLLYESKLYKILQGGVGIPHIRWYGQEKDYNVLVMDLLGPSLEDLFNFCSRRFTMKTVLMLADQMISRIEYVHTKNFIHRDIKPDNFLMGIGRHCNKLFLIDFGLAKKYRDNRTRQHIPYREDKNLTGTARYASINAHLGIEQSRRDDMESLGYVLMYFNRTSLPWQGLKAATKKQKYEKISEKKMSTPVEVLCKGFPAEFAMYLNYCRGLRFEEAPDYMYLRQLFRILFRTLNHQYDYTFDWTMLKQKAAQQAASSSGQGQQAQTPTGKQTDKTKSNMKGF
UniProt Q9UKS7, whole entry: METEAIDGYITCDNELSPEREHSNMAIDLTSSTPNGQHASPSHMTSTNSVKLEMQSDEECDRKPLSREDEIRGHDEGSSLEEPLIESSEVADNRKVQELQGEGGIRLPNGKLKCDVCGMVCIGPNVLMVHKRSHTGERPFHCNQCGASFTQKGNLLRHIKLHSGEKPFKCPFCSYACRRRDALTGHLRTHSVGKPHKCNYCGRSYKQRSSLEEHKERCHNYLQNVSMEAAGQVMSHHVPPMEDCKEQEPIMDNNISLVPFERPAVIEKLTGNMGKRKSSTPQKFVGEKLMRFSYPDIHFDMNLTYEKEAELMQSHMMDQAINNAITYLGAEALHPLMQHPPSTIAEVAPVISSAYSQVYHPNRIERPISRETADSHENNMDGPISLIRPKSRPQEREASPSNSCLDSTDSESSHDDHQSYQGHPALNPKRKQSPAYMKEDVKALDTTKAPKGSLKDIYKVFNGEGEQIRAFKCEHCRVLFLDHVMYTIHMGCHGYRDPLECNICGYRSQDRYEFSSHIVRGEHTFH
UniProt Q9UKT9, whole entry: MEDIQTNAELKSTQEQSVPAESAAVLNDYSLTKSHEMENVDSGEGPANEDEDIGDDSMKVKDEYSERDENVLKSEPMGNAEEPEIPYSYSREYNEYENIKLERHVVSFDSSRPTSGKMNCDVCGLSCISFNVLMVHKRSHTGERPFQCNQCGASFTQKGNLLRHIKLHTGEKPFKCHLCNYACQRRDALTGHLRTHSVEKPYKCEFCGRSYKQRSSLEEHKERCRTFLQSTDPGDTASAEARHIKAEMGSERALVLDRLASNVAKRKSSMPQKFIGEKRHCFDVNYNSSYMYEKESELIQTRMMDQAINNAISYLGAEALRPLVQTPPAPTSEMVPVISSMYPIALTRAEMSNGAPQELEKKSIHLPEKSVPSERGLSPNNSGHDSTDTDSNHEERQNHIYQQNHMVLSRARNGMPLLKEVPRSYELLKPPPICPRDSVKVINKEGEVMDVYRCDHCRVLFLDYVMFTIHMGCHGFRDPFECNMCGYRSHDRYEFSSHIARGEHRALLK
UniProt P15170, whole entry: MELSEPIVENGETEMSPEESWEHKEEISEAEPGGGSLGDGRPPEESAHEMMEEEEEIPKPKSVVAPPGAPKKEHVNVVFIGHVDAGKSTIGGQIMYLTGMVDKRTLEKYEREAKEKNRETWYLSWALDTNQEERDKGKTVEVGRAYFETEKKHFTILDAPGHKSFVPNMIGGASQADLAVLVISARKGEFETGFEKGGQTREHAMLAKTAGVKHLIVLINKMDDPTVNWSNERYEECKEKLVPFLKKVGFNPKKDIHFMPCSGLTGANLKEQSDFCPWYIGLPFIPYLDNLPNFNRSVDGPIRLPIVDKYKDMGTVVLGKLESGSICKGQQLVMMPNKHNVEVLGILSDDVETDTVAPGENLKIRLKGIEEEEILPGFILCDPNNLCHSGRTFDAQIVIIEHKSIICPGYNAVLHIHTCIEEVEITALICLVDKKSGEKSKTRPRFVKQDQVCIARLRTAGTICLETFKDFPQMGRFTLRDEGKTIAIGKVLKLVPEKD
UniProt P30291, whole entry: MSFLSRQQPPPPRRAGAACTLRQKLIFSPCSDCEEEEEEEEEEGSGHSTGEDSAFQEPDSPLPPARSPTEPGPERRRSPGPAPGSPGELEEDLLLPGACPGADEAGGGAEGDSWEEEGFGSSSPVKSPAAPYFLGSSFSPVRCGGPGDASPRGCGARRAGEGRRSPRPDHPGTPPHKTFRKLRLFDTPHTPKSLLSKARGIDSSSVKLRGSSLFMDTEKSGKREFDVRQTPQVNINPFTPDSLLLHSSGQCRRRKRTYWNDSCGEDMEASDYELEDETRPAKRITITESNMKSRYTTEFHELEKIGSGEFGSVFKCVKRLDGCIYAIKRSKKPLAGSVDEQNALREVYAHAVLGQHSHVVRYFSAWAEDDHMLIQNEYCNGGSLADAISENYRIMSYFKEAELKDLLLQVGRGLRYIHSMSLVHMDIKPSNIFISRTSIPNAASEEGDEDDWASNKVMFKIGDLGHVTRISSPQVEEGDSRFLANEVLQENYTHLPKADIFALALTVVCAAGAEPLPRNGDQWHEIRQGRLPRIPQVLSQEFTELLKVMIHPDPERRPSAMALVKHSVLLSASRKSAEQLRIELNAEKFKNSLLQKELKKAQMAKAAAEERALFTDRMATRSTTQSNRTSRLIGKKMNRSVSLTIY
UniProt Q16531, whole entry partner: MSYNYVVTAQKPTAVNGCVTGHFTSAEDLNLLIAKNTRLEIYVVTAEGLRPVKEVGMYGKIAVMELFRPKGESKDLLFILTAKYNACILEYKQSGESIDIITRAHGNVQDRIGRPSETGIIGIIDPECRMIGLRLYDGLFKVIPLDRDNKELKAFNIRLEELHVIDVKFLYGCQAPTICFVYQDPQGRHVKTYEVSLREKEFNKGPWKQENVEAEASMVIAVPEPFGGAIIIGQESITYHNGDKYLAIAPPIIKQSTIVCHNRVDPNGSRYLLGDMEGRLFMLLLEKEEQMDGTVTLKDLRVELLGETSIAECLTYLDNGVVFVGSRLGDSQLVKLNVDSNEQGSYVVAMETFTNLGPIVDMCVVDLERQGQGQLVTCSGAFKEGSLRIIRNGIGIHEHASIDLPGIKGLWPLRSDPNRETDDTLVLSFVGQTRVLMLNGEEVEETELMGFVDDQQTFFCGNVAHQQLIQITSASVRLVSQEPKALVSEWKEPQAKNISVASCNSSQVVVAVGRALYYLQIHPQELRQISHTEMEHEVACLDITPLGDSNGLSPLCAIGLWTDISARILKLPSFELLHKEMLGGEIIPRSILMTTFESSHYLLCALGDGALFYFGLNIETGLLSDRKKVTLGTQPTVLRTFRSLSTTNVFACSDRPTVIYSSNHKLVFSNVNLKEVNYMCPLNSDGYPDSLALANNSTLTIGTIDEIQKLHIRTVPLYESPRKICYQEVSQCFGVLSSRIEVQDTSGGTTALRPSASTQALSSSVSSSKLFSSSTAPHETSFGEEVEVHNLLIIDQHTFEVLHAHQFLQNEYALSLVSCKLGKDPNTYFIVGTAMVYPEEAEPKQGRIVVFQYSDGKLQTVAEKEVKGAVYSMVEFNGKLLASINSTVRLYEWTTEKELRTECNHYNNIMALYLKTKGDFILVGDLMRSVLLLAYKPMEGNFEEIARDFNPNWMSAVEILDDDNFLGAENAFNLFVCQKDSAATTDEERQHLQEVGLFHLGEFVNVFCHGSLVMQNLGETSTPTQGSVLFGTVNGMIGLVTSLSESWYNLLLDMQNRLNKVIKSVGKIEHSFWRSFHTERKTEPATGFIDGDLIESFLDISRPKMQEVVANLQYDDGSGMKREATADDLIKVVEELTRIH

In patent EP4834897A1, “COMPOUNDS WITH TWO AZAHETEROCYCLES SUBSTITUTED ISOINDOLINONE SKELETON AND USES THEREOF” (dated 2026):

biological target: IKZF1 (Homo sapiens, UniProt Q13422+Q96SW2); experiment: Western blot assay of substrate protein degradation in hPBMCs; conditions: 24 hours treatment, compounds at 50 nM and 500 nM (concentration behind the class not stated)

SMILES | substrate protein remaining % (IKZF 1)
CC1(C)CCC(CN2CCN(C3CCN(Cc4ccc5c(c4F)CN(C4CCC(=O)NC4=O)C5=O)CC3(F)F)CC2)=C(c2ccc(Cl)cc2)C1 (stereo not shown) | B (80%< substrate protein remaining %≤ 100%)
CC1(C)CCC(CN2CCN(C3CCN(Cc4ccc5c(c4)C(=O)N(C4CCC(=O)NC4=O)C5)CC3(F)F)CC2)=C(c2ccc(Cl)cc2)C1 (stereo not shown) | B (80%< substrate protein remaining %≤ 100%)

biological target: CK1α (Homo sapiens, UniProt P48729+Q96SW2); experiment: as above; conditions: 24 hours treatment, compounds at 50 nM and 500 nM (concentration behind the class not stated)

SMILES | substrate protein remaining % (CK1a)
CC1(C)CCC(CN2CCN(C3CCN(Cc4ccc5c(c4F)CN(C4CCC(=O)NC4=O)C5=O)CC3(F)F)CC2)=C(c2ccc(Cl)cc2)C1 (stereo not shown) | B (80%< substrate protein remaining %≤ 100%)
CC1(C)CCC(CN2CCN(C3CCN(Cc4ccc5c(c4)C(=O)N(C4CCC(=O)NC4=O)C5)CC3(F)F)CC2)=C(c2ccc(Cl)cc2)C1 (stereo not shown) | A (0% ≤ substrate protein remaining % ≤ 80%)

biological target: IKZF2 (Homo sapiens, UniProt Q96SW2+Q9UKS7); experiment: as above; conditions: 24 hours treatment, compounds at 50 nM and 500 nM (concentration behind the class not stated)

SMILES | substrate protein remaining % (IKZF2)
CC1(C)CCC(CN2CCN(C3CCN(Cc4ccc5c(c4F)CN(C4CCC(=O)NC4=O)C5=O)CC3(F)F)CC2)=C(c2ccc(Cl)cc2)C1 (stereo not shown) | B (80%< substrate protein remaining %≤ 100%)
CC1(C)CCC(CN2CCN(C3CCN(Cc4ccc5c(c4)C(=O)N(C4CCC(=O)NC4=O)C5)CC3(F)F)CC2)=C(c2ccc(Cl)cc2)C1 (stereo not shown) | B (80%< substrate protein remaining %≤ 100%)

biological target: IKZF3 (Homo sapiens, UniProt Q96SW2+Q9UKT9); experiment: as above; conditions: 24 hours treatment, compounds at 50 nM and 500 nM (concentration behind the class not stated)

SMILES | substrate protein remaining % (IKZF3)
CC1(C)CCC(CN2CCN(C3CCN(Cc4ccc5c(c4F)CN(C4CCC(=O)NC4=O)C5=O)CC3(F)F)CC2)=C(c2ccc(Cl)cc2)C1 (stereo not shown) | A (0% ≤ substrate protein remaining % ≤ 80%)
CC1(C)CCC(CN2CCN(C3CCN(Cc4ccc5c(c4)C(=O)N(C4CCC(=O)NC4=O)C5)CC3(F)F)CC2)=C(c2ccc(Cl)cc2)C1 (stereo not shown) | B (80%< substrate protein remaining %≤ 100%)

biological target: GSPT1 (Homo sapiens, UniProt P15170+Q96SW2); experiment: as above; conditions: 24 hours treatment, compounds at 50 nM and 500 nM (concentration behind the class not stated)

SMILES | substrate protein remaining % (GSPT1)
CC1(C)CCC(CN2CCN(C3CCN(Cc4ccc5c(c4F)CN(C4CCC(=O)NC4=O)C5=O)CC3(F)F)CC2)=C(c2ccc(Cl)cc2)C1 (stereo not shown) | B (80%< substrate protein remaining %≤ 100%)
CC1(C)CCC(CN2CCN(C3CCN(Cc4ccc5c(c4)C(=O)N(C4CCC(=O)NC4=O)C5)CC3(F)F)CC2)=C(c2ccc(Cl)cc2)C1 (stereo not shown) | A (0% ≤ substrate protein remaining % ≤ 80%)

biological target: WEE1 (Homo sapiens, UniProt P30291+Q96SW2); experiment: as above; conditions: 24 hours treatment, compounds at 50 nM and 500 nM (concentration behind the class not stated)

SMILES | substrate protein remaining % (WEE1)
CC1(C)CCC(CN2CCN(C3CCN(Cc4ccc5c(c4F)CN(C4CCC(=O)NC4=O)C5=O)CC3(F)F)CC2)=C(c2ccc(Cl)cc2)C1 (stereo not shown) | B (80%< substrate protein remaining %≤ 100%)
CC1(C)CCC(CN2CCN(C3CCN(Cc4ccc5c(c4)C(=O)N(C4CCC(=O)NC4=O)C5)CC3(F)F)CC2)=C(c2ccc(Cl)cc2)C1 (stereo not shown) | B (80%< substrate protein remaining %≤ 100%)

tested on: IL-5; experiment: Inflammatory cytokine release from PBMCs induced by PMA + Ionomycin (flow cytometry CBA); conditions: 0.1 µM, 24 h

SMILES | Inhibition Rate (%) IL-5
CC1(C)CCC(CN2CCN(C3CCN(Cc4ccc5c(c4F)CN(C4CCC(=O)NC4=O)C5=O)CC3(F)F)CC2)=C(c2ccc(Cl)cc2)C1 (stereo not shown) | IV9 (40% < IV9 ≤ 50%)
CC1(C)CCC(CN2CCN(C3CCN(Cc4ccc5c(c4)C(=O)N(C4CCC(=O)NC4=O)C5)CC3(F)F)CC2)=C(c2ccc(Cl)cc2)C1 (stereo not shown) | IV8 (30% < IV8 ≤ 40%)
O=C1CCC(N2Cc3cccc(C(=O)N4CCC(N5CCN(c6noc7cc(F)ccc67)CC5)C(F)(F)C4)c3C2=O)C(=O)N1 (stereo not shown) | IV8 (30% < IV8 ≤ 40%)
O=C1CCN(N2C(=O)c3ccc(CN4CCC(N5CCN(c6noc7cc(F)ccc67)CC5)CC4)cc3C2=O)C(=O)N1 | IV7 (20% < IV7 ≤ 30%)

same assay, conditions: 1 µM, 24 h

SMILES | Inhibition Rate (%) IL-5
CC1(C)CCC(CN2CCN(C3CCN(Cc4ccc5c(c4F)CN(C4CCC(=O)NC4=O)C5=O)CC3(F)F)CC2)=C(c2ccc(Cl)cc2)C1 (stereo not shown) | IV8 (30% < IV8 ≤ 40%)
CC1(C)CCC(CN2CCN(C3CCN(Cc4ccc5c(c4)C(=O)N(C4CCC(=O)NC4=O)C5)CC3(F)F)CC2)=C(c2ccc(Cl)cc2)C1 (stereo not shown) | IV9 (40% < IV9 ≤ 50%)
O=C1CCC(N2Cc3cccc(C(=O)N4CCC(N5CCN(c6noc7cc(F)ccc67)CC5)C(F)(F)C4)c3C2=O)C(=O)N1 (stereo not shown) | IV9 (40% < IV9 ≤ 50%)
O=C1CCN(N2C(=O)c3ccc(CN4CCC(N5CCN(c6noc7cc(F)ccc67)CC5)CC4)cc3C2=O)C(=O)N1 | IV9 (40% < IV9 ≤ 50%)

tested on: GM-CSF; experiment: as above; conditions: 0.1 µM, 24 h

SMILES | Inhibition Rate (%) GM-CSF
CC1(C)CCC(CN2CCN(C3CCN(Cc4ccc5c(c4F)CN(C4CCC(=O)NC4=O)C5=O)CC3(F)F)CC2)=C(c2ccc(Cl)cc2)C1 (stereo not shown) | IV9 (40% < IV9 ≤ 50%)
CC1(C)CCC(CN2CCN(C3CCN(Cc4ccc5c(c4)C(=O)N(C4CCC(=O)NC4=O)C5)CC3(F)F)CC2)=C(c2ccc(Cl)cc2)C1 (stereo not shown) | IV8 (30% < IV8 ≤ 40%)

same assay, conditions: 1 µM, 24 h

SMILES | Inhibition Rate (%) GM-CSF
CC1(C)CCC(CN2CCN(C3CCN(Cc4ccc5c(c4F)CN(C4CCC(=O)NC4=O)C5=O)CC3(F)F)CC2)=C(c2ccc(Cl)cc2)C1 (stereo not shown) | IV8 (30% < IV8 ≤ 40%)
CC1(C)CCC(CN2CCN(C3CCN(Cc4ccc5c(c4)C(=O)N(C4CCC(=O)NC4=O)C5)CC3(F)F)CC2)=C(c2ccc(Cl)cc2)C1 (stereo not shown) | IV9 (40% < IV9 ≤ 50%)

biological target: CRBN (Homo sapiens, UniProt Q96SW2); experiment: CRBN binding affinity by HTRF (CEREBLON BINDING kit); conditions: CRBN binding, HTRF, compound at 0.5 µM

SMILES | Inhibition Rate at 0.5 µM (%)
CC1(C)CCC(CN2CCN(C3CCN(Cc4ccc5c(c4F)CN(C4CCC(=O)NC4=O)C5=O)CC3(F)F)CC2)=C(c2ccc(Cl)cc2)C1 (stereo not shown) | a3 (30% < a3 ≤ 40%)
CC1(C)CCC(CN2CCN(C3CCN(Cc4ccc5c(c4)C(=O)N(C4CCC(=O)NC4=O)C5)CC3(F)F)CC2)=C(c2ccc(Cl)cc2)C1 (stereo not shown) | a3 (30% < a3 ≤ 40%)
O=C1CCC(N2Cc3cccc(C(=O)N4CCC(N5CCN(c6noc7cc(F)ccc67)CC5)C(F)(F)C4)c3C2=O)C(=O)N1 (stereo not shown) | a3 (30% < a3 ≤ 40%)

same assay, conditions: CRBN binding, HTRF, compound at 2 µM

SMILES | Inhibition Rate at 2 µM (%)
CC1(C)CCC(CN2CCN(C3CCN(Cc4ccc5c(c4F)CN(C4CCC(=O)NC4=O)C5=O)CC3(F)F)CC2)=C(c2ccc(Cl)cc2)C1 (stereo not shown) | a7 (70% < a7 ≤80%)
CC1(C)CCC(CN2CCN(C3CCN(Cc4ccc5c(c4)C(=O)N(C4CCC(=O)NC4=O)C5)CC3(F)F)CC2)=C(c2ccc(Cl)cc2)C1 (stereo not shown) | a6 (60% < a6 ≤ 70%)
O=C1CCC(N2Cc3cccc(C(=O)N4CCC(N5CCN(c6noc7cc(F)ccc67)CC5)C(F)(F)C4)c3C2=O)C(=O)N1 (stereo not shown) | a6 (60% < a6 ≤ 70%)

tested on: IL-2; experiment: Inflammatory cytokine release from PBMCs induced by PHA (flow cytometry CBA); conditions: 0.1 µM; PBMCs, PHA 1 µg/mL, 24 h

SMILES | Inhibition Rate (%) IL-2
CC1(C)CCC(CN2CCN(C3CCN(Cc4ccc5c(c4)C(=O)N(C4CCC(=O)NC4=O)C5)CC3(F)F)CC2)=C(c2ccc(Cl)cc2)C1 (stereo not shown) | IV9 (40% < IV9 ≤ 50%)
O=C1CCN(N2C(=O)c3ccc(CN4CCC(N5CCN(c6noc7cc(F)ccc67)CC5)CC4)cc3C2=O)C(=O)N1 | IV9 (40% < IV9 ≤ 50%)

same assay, conditions: 1 µM; PBMCs, PHA 1 µg/mL, 24 h

SMILES | Inhibition Rate (%) IL-2
CC1(C)CCC(CN2CCN(C3CCN(Cc4ccc5c(c4)C(=O)N(C4CCC(=O)NC4=O)C5)CC3(F)F)CC2)=C(c2ccc(Cl)cc2)C1 (stereo not shown) | IV9 (40% < IV9 ≤ 50%)
O=C1CCN(N2C(=O)c3ccc(CN4CCC(N5CCN(c6noc7cc(F)ccc67)CC5)CC4)cc3C2=O)C(=O)N1 | IV9 (40% < IV9 ≤ 50%)
